The list shows a part of the results, in another mix than the full data. The source made the active and inactive calls.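 How the source made its calls: active means activation above the mean activation of all test compounds in the run plus 3 SD (cut at about 38% in these data); inactive means the rest.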
These compounds were tested against Trace amine-associated receptor 1 (Homo sapiens) (UniProt Q96RJ0) (assay: activators of TAAR1 calcium mobilization – Fluo-8 calcium fluorescence, CHO RD-HGA16 cells, primary screen (AID 624467)). Settings: CHO RD-HGA16 TAAR1, Fluo-8 calcium fluorescence; at 3 µM; active compounds read high; vehicle wells 0%, saturating PEA agonist 100%.

The chains behind the UniProt entries cited, without tags or fusion partners.
UniProt Q96RJ0, whole entry: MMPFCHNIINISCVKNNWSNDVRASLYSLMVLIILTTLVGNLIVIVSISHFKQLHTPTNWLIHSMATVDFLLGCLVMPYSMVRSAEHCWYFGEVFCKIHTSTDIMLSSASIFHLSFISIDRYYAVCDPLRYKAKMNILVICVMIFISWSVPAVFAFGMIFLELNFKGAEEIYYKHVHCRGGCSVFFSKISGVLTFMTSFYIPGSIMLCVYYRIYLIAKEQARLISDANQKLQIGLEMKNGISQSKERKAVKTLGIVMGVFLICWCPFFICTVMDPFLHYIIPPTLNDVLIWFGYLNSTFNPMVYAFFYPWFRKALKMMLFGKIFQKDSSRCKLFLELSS

Row | SMILES | activation
1 | CCC(=O)N(c1ccccc1)C1(COC)CCN(CCc2cccs2)CC1 | inactive: -0.52%
2 | CCC(=O)N(c1ccccc1)C1(COC)CCN(CCn2nnn(CC)c2=O)CC1 | inactive: 2.39%

— PubChem BioAssay AID624467 (The Scripps Research Institute Molecular Screening Center, 2012)
